This is an account of results in ChEMBL document CHEMBL6109156, “Discovery of Dual PD-L1/HDAC3 Inhibitors for Tumor Immunotherapy” (J Med Chem, 2025).

Experiment [1] is filed under the species Homo sapiens. Put plainly: Selectivity index, ratio of IC50 for inhibition of human recombinant HDAC3 using Ac-Leu-Gly-Lys (Ac)-AMC as substrate to IC50 for inhibition of human recombinant HDAC1 using Ac-Leu-Gly-Lys (Ac)-AMC as substrate.
For experiment [2], the species on record is Homo sapiens. Put plainly: Selectivity index, ratio of IC50 for inhibition of human recombinant HDAC3 using Ac-Leu-Gly-Lys (Ac)-AMC as substrate to IC50 for inhibition of human recombinant HDAC6 using Ac-Leu-Gly-Lys (Ac)-AMC as substrate.
For experiment [3], the species on record is Homo sapiens. In words: Selectivity index, ratio of IC50 for inhibition of human recombinant HDAC3 using Ac-Leu-Gly-Lys (Tfa)-AMC as substrate to IC50 for inhibition of human recombinant HDAC8 using Ac-Leu-Gly-Lys (Ac)-AMC as substrate.

Each structure is given as a SMILES string.

With `CCCNNC(=O)c1cnc(NCCNCc2ccc(-c3cccc(-c4ccccc4)c3C)nc2OC)cn1`, the Ratio IC50 in the experiment listed under Homo sapiens [1], in the experiment listed under Homo sapiens [2] and in the experiment listed under Homo sapiens [3] was more than 13 throughout.
In the case of `CCCNNC(=O)CCCNCc1ccc(-c2cccc(-c3ccccc3)c2C)nc1OC`, the Ratio IC50 in the experiment listed under Homo sapiens [1], in the experiment filed under Homo sapiens [2] and in the experiment filed under Homo sapiens [3] was more than 21 each time.
